Target: human TRPV1 (Homo sapiens, UniProt Q8NER1)
Assay: cell-based fluorescence assay of membrane depolarization by readily soluble drugs in HEK293 cells
Parameters: expressed in transfected cells; host or cells: HEK293 cells
Conditions: 100 μM drug; HEK293 untransfected (Parental), human TRPA1 or human TRPV1 transfected; FIG. 1
Method: A cell-based fluorescence assay was performed using HEK293 cells to determine
TRPV1 selectivity of readily soluble drugs. […] Parental cells and TRPA1 cells served as negative controls. All cells were incubated with 100 μM of readily soluble drugs. Cell membrane depolarization was measured in relative fluorescence units (RFU) through a coupled fluorescence emission scheme.

Chains of the proteins cited; added tags and fusions are not shown.
UniProt Q8NER1, whole entry: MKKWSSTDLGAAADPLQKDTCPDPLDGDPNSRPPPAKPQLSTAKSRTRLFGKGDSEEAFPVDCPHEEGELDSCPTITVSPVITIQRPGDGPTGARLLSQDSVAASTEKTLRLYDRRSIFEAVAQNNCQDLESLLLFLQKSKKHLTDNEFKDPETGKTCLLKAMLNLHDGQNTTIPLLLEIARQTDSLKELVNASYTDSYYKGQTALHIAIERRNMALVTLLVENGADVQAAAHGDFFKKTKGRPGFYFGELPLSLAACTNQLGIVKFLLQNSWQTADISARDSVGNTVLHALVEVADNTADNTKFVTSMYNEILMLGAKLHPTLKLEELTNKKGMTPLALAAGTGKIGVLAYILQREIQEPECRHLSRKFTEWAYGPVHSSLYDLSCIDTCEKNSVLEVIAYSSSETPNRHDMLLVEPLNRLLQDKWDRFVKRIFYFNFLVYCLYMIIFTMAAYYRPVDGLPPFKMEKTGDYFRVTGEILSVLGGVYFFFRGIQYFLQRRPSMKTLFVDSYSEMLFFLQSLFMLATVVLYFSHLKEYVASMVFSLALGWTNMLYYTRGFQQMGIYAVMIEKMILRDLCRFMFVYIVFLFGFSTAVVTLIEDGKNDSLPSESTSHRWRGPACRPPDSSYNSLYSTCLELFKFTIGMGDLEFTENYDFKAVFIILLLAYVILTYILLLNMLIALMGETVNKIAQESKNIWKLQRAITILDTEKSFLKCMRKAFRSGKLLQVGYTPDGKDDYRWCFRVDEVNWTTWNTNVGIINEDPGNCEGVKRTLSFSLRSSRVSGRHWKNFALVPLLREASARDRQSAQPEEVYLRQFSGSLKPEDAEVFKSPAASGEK

COc1ccc2c(c1)[C@]13CCCC[C@@H]1[C@H](C2)N(C)CC3 [dextromethorphan]
cell membrane depolarization (RFU) in TRPV1 cells compared to Parental and TRPA1 cells: greater membrane depolarization in TRPV1 cells

From patent publication US20080153845A1, “TRPV1 ANTAGONISTS AND USES THEREOF” (REDPOINT BIO CORPORATION, priority 2006, published 2008)
